Screening results deposited in PubChem by National Center for Advancing Translational Sciences (NCATS).
In the library only some 2.1% were active in any assay of this set; here they are far more common.
Nrf2 block: inhibitors of Nrf2 signaling; A549 ARE-Fluc reporter, luciferase luminescence, 18-24 h; Potency, µM (series often up to 46 µM), for inactives: at the top dose activity change, negative = inhibition, hits mostly inhibitors; 360,000 tested, 2.1% active; AID 504444; further: potency means the concentration at half of the fitted maximal effect; on the % scale 0 is the no-effect control and ±100 the full control effect; nearly all actives have a fitted effect of over 60% in size
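A549 ARE_Fluc cells (5000/well, 5% FBS OPTI-MEM) pre-incubated 2 h, then treated with compounds 18-24 h at 37C/5% CO2 in concentration-response. CellTiter-Fluor viability read first; BugLite luciferase luminescence after 15 min at room temperature gives Nrf2 activity.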
Nrf2 activator: activators of Nrf2 (ARE) signaling. AREc32 ARE-luciferase reporter (MCF7-derived line), luminescence, 24 h. Potency, µM (titrated, usually from 46.1 µM), without a hit: top-dose activation, hits mostly activators. 410,000 tested, 0.31% active. AID 624171; further: potency means the concentration at half of the fitted maximal effect; % of control where 0% means no effect; nearly all actives have a fitted effect of over 65% in size
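Cells of the AREc32 ARE-luciferase line are plated in OPTI-MEM containing 5% FBS and left overnight at 37 deg C. Compounds are pinned in, incubation continues 24 hr, and firefly luciferase signal is then measured.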
Glioma ERSR ind: induces the endoplasmic reticulum stress response in human glioma cells; U87-MG GRP78 promoter luciferase reporter, 16 h; Potency, µM, inactives show at the top dose activation, most hits filed as activators; 420,000 tested, 0.02% active; further: potency means the concentration at half of the fitted maximal effect; series mostly up to about 76 µM; % of control where 0% means no effect; nearly all actives have a fitted effect of over 35% in size
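Stably transfected U87-MG glioma cells carrying a GRP78-based luciferase sensor; 16 h compound incubation. Luminescence end-point read 10 min after Bright-Glo addition at room temperature.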
PTAP TSG101 blk: blocks PTAP/TSG101 interaction to inhibit HIV-1 budding | Fluorescence polarization, FITC-PTAP peptide / Tsg101 binding | Potency, µM (titrated, usually from 115 µM), inactives show at the highest dose activity change, negative = inhibition, actives largely listed as inhibitors | 340,000 tested, under 10 active | AID 493005; active means well fitted inhibition curve with a large enough effect in the main read-out, with a control signal flat, not every such curve was filed as active; inconclusive means small, poorly fitted or top-dose-only effect, or effect the other way, or a change in a side signal; inactive means no such curve, though single readings can be large or run the other way; further: potency means the concentration at half of the fitted maximal effect; % of control where 0% means no effect
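Fluorescence polarization binding of Tsg101 binding domain (10 uM final) to FITC-labeled PTAP peptide (50 nM final) in HEPES pH 7.5 buffer with NaCl, Tween 20, EDTA, TCEP. Compounds added before peptide; binding 20 min at RT.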
miR-21 reporter: raises the signal of a miR-21 reporter | Potency, µM (highest dose often 38.3 µM), without a hit: at the top dose reporter change, positive = more light | HeLa miR-21 FLuc reporter, luciferase, 48 h | 340,000 tested, under 10 active; active = well fitted rising curve with a large enough effect; inconclusive = small, poorly fitted or top-dose-only effect; inactive = no such curve, though single readings can be large or run the other way;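 further: % of control where 0% means no effect; miR-21 action dims this reporter so a rising signal means less miR-21 action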
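HeLa cells endogenously expressing miR-21, stably carrying CMV-driven firefly luciferase with a downstream miR-21 binding site, 2000 cells/well. Titrations up to approximately 40 uM, 48 hours; luciferase luminescence read.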
A549 tox: A549 cytotoxicity, counter-screen for Nrf2 inhibitors; Potency, µM (doses to about 46 µM), for the others: at the highest dose activity change, negative = cytotoxicity, usual class: inhibitors; 390,000 tested, 0.16% active; A549 ARE-Fluc cells, CellTiter-Fluor viability, 18-24 h; further: potency means the concentration at half of the fitted maximal effect; on the % scale 0 is the no-effect control and ±100 the full control effect
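A549 ARE_Fluc cells in 5% FBS OPTI-MEM were exposed to compounds in concentration-response for 18-24 h at 37 deg C. Viability was read by CellTiter-Fluor fluorescence (Ex 405/Em 525) after 30 min, before the luciferase read.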
Numbers without * were called inactive; u = inconclusive; x = not tested or not shown. Unless noted, the call rests on the fitted dose curve; in most records, active means well fitted curve in the direction sought with a large enough effect; inconclusive means small, poorly fitted or top-dose-only effect, or another doubt; inactive means no such curve, though single readings can be large; an effect the other way counts as inactive or inconclusive.

SMILES	Nrf2 block	Nrf2 activator	Glioma ERSR ind	PTAP TSG101 blk	miR-21 reporter	A549 tox
CCCc1cc(N2CCN(c3ccccc3F)CC2)n2cnnc2n1	16.4µM*	-0.9%	-2.4%	x	u	-13.2%
Cc1cc(C)c2oc(-c3cccc(NC(=O)c4ccc(Br)o4)c3)nc2c1	2.6%	8.3%	-0.1%	x	-5.7%	3.3%
O=C(Nc1cccc(-c2nnc(-c3ccccc3)o2)c1)c1ccc(Br)o1	23.1µM*	4.2%	-0.7%	1.0%	-11.4%	u
N#Cc1ccc(-c2csc(NNC(=O)c3ccc(Br)cc3)n2)cc1	x	-0.7%	-3.3%	-4.1%	24.4%	u
N#Cc1ccc(-c2csc(NNC(=O)c3ccccc3)n2)cc1	23.1µM*	-1.1%	-5.2%	2.5%	23.3%	-13.8%
COc1ccc(NS(=O)(=O)c2ccc3oc(SC(C)C(N)=O)nc3c2)cc1 (configuration not stated)	23.1µM*	2.9%	6.7%	-3.1%	3.0%	-3.4%
CCNC(=O)CSc1nc2cc(S(=O)(=O)Nc3ccc(OC)cc3)ccc2o1	9.3%	2.5%	-0.8%	-6.1%	-0.3%	0.8%
O=C(NCCCCc1ccccc1)c1cccc(NC(=O)C2CCC2)c1	16.4µM*	0.5%	-0.5%	-4.0%	x	-0.4%
O=C(Nc1ccn(Cc2ccccc2F)n1)c1ccc(COc2ccc(Br)cc2)cc1	6.51µM*	-0.7%	-1.9%	-5.6%	12.2%	u
O=C(Nc1ccc(Cn2cccn2)cc1)c1ccc(COc2ccc(Br)cc2)cc1	5.9%	0.0%	-4.5%	-2.8%	-2.5%	-0.3%

Profiles as entered above. Screens in order: Nrf2 block	Nrf2 activator	Glioma ERSR ind	PTAP TSG101 blk	miR-21 reporter	A549 tox
Listed for `N#Cc1ccc(-c2csc(NNC(=O)c3ccc(Br)cc3)n2)cc1` : x	-0.7%	-3.3%	-4.1%	24.4%	u
Listed for `CCCc1cc(N2CCN(c3ccccc3F)CC2)n2cnnc2n1` : 16.4µM*	-0.9%	-2.4%	x	u	-13.2%
Listed for `O=C(Nc1cccc(-c2nnc(-c3ccccc3)o2)c1)c1ccc(Br)o1` : 23.1µM*	4.2%	-0.7%	1.0%	-11.4%	u

The results go on:
SMILES	Nrf2 block	Nrf2 activator	Glioma ERSR ind	PTAP TSG101 blk	miR-21 reporter	A549 tox
COc1ccccc1C(=O)Oc1ccccc1C(=O)Nc1ccccc1	10.6%	-1.0%	-2.8%	-4.4%	-32.6%	-5.9%
O=C(Oc1ccccc1C(=O)Nc1ccccc1)c1ccc(Br)c([N+](=O)[O-])c1	u	u	31.6µM*	1.7%	-32.1%	-5.0%
CCOc1ccc(S(=O)(=O)n2ccc(C)n2)c2ccccc12	23.1µM*	-0.3%	-3.6%	0.0%	-10.3%	u
OC(COc1ccc(OCC(O)CN2CCCCCC2)cc1)CN1CCCCCC1 (configuration not stated)	x	-1.0%	-1.7%	-1.5%	-17.3%	2.59µM*
COc1ccc(OCC(O)CN2CCCCCC2)cc1 (configuration not stated)	2.9%	0.0%	-2.6%	x	-1.1%	0.1%
N=c1c2c(-c3ccccc3)c(-c3ccccc3)n(Cc3ccco3)c2ncn1Cc1ccccc1	11.9%	0.0%	-10.6%	-6.6%	u	4.5%
CC(C)Cn1cnc2c(c(-c3ccccc3)c(-c3ccccc3)n2Cc2ccco2)c1=N	-20.5%	3.1%	-14.7%	-10.7%	u	23.1µM*
COc1cccc(C2c3c(ncn(-c4ccc(C#N)cc4)c3=N)Oc3ccc4ccccc4c32)c1 (configuration not stated)	-23.2%	x	x	x	x	-10.0%
Brc1ccc(-c2nnc(-c3cccnc3)o2)cc1	u	8.5%	-0.2%	-0.6%	x	1.4%
Brc1ccccc1-c1nnc(-c2cccnc2)o1	u	15.8µM*	-3.9%	-8.4%	-51.3%	-1.9%

Some of the entries so far, as a markdown table:
| SMILES | Nrf2 block | Nrf2 activator | Glioma ERSR ind | PTAP TSG101 blk | miR-21 reporter | A549 tox |
| --- | --- | --- | --- | --- | --- | --- |
| O=C(Nc1ccc(Cn2cccn2)cc1)c1ccc(COc2ccc(Br)cc2)cc1 | 5.9% | 0.0% | -4.5% | -2.8% | -2.5% | -0.3% |
| Brc1ccc(-c2nnc(-c3cccnc3)o2)cc1 | u | 8.5% | -0.2% | -0.6% | x | 1.4% |

(more compounds)
SMILES	Nrf2 block	Nrf2 activator	Glioma ERSR ind	PTAP TSG101 blk	miR-21 reporter	A549 tox
Cc1cccc2c(N3CCCC3)nc(CNS(=O)(=O)c3ccc4ccccc4c3)nc12	x	x	-6.3%	x	x	x
CC(C)OC(=O)NC(C)(C)COC(=O)Nc1cccc(Cl)c1	10.3µM*	1.9%	4.1%	-5.3%	-10.5%	-26.0%
O=C(Cn1cc(CNCc2ccccc2)nn1)Nc1cc(C(F)(F)F)ccc1Cl	10.3%	x	x	x	x	-2.2%
COc1cc2nc(CN3CCN(S(=O)(=O)c4ccc(Cl)cc4)CC3)[nH]c(=O)c2cc1OC	23.1µM*	1.5%	-2.2%	-3.4%	23.4%	-8.8%
Cc1nc(C)n(CC(=O)NCC2Cc3cc(-c4cccc(OC(F)(F)F)c4)ccc3O2)n1 (configuration not stated)	x	x	-0.3%	x	x	x
Cc1ccccc1OCC(=O)Nc1ccc2c(c1)C(=O)c1ccccc1C2=O	14.6µM*	0.1%	7.7%	1.4%	-49.2%	u
Cc1ccccc1OCC(=O)Nc1ccc2c(c1)Cc1ccccc1-2	x	-0.1%	-1.1%	-3.0%	-7.6%	6.1%
CC(C)(C)C(=O)Nc1ccc2c(c1)C(=O)C(=O)c1ccccc1-2	20.6µM*	x	x	x	x	u
CCCC1(C)C(C#N)(C#N)C1(C#N)C#N	x	x	-14.4%	x	x	x
CN(C)c1ccc(/C=C/c2ccnc3ccc(O)cc23)cc1	x	x	-2.7%	x	x	x
COc1cc(CNC(=O)c2cnc3c(-c4cccc(C)c4)c(C)nn3c2C)cc(OC)c1OC	20.6µM*	-1.0%	-0.6%	x	3.1%	-0.5%
COc1ccc(CN2CCOc3ccc(C(O)c4cccnc4)cc3C2)c(F)c1 (configuration not stated)	x	x	-2.4%	x	x	x
C#CCOCCOCCOCCNc1nc(N2CCN(C(=O)CCCCCCCCCCNC(=O)[C@H]([C@@H](C)CC)n3cc(CCCCN=C(N)N)nn3)CC2)nc(N2CCN(C(=O)CCCCCCCCCCNC(=O)[C@@H]([C@H](C)O)n3cc(C)nn3)CC2)n1	23.1µM*	-3.4%	-10.3%	x	x	u
C#CCOCCOCCOCCNc1nc(N2CCOCC2)nc(N2CCN(C(=O)CCCCCCCCCCNC(=O)[C@H]([C@@H](C)CC)n3cc(CCCCN=C(N)N)nn3)CC2)n1	7.4%	0.0%	-5.8%	-2.8%	x	-10.8%
Cc1nn(-c2ccccc2)nc1C(=O)c1c(C)[nH]n(-c2ccccc2)c1=O	20.6µM*	-0.1%	-2.7%	0.9%	-1.0%	u
CC1=C[C@@H](O)CC(C)(C)[C@@H]1/C=C/C(C)=C/C=C/C(C)=C/C=C/C=C(C)/C=C/C=C(C)/C=C/C1=C(C)C[C@H](O)CC1(C)C	x	x	-0.4%	x	x	x
COc1cccc(OCCSc2nc3ccccc3c(=O)[nH]2)c1	-29.9%	0.1%	-1.9%	-0.9%	-5.1%	-1.0%
COc1ccc(OCCSc2nc3ccccc3c(=O)[nH]2)cc1	4.11µM*	2.8%	3.0%	-3.8%	-24.3%	-9.0%
O=C(NCC1Cc2cccc(-c3ncccn3)c2O1)C1CCCO1 (configuration not stated)	x	x	-4.1%	x	x	x
CCNc1c([N+](=O)[O-])c(=O)n(CC)c2ccccc12	-29.5%	-0.3%	-1.9%	-2.1%	1.0%	-5.3%
CCn1c(=O)c([N+](=O)[O-])c(NCc2ccco2)c2ccccc21	-16.9%	8.91µM*	-4.7%	-1.6%	-1.8%	u
CC1(C)S[C@@H]2C(C(=O)O)NC(=O)N2C1C(=O)O (some centres not stated)	x	x	-3.9%	x	x	x
CCCOC(=O)C1=C(C)CS[C@@H]2[C@H](NC(=O)COc3ccccc3)C(=O)N12	x	x	-0.6%	x	x	x
